Laboratory results: PubChem BioAssay (Tox21)
Values joined by “and” are separate entries in the source; they are usually repeats but may differ in a detail not shown here. Equal entries are not always repeated. This is a selection; strong and weak results do not stand in their true shares. Inconclusive results are not listed. Active and inactive are the calls of the source. Unless noted, calls come from the whole dose curve; as a rule, active = well fitted curve in the direction sought with a large enough effect in the repeat runs; inconclusive = weak or mixed curves; inactive = no such curve, though single readings can be large; an effect the other way counts as inactive or inconclusive.

The chains behind the UniProt entries cited, without tags or fusion partners.
UniProt P04150, whole entry: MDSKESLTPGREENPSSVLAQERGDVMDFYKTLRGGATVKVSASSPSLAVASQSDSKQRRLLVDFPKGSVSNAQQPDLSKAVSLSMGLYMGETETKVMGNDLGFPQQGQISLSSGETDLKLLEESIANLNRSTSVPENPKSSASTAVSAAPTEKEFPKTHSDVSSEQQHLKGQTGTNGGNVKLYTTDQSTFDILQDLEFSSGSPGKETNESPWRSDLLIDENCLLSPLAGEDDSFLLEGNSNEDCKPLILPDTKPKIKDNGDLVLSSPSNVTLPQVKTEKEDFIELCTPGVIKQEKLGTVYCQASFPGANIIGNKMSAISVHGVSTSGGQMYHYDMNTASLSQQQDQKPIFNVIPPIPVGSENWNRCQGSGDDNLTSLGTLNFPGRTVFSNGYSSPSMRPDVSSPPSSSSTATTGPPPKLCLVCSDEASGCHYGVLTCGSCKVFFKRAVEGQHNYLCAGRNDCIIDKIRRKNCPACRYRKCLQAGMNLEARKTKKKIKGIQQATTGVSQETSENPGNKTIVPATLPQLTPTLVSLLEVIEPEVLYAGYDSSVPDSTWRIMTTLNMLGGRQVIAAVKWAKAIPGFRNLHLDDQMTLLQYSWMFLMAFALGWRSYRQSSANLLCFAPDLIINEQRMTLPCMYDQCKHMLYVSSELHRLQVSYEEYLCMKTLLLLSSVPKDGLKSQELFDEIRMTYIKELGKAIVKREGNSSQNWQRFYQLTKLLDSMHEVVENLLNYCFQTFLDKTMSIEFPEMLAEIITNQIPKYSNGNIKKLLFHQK

Experiments:
[1] = qHTS assay to test for compound auto fluorescence at 535 nm (green) in HEK293 cell free culture (AID 720682); settings: cell-free medium, green autofluorescence 485/535 nm, active compounds read high
In short: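 Green-channel intensity (Ex/Em 485/535 nm) was recorded from compound-treated wells containing only DMEM with 10% FBS. Fluorescein provided the equivalency standard.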

[2] = qHTS assay to test for compound auto fluorescence at 590 nm (red) in HEK293 cell free culture (AID 720683); settings: cell-free medium autofluorescence, Ex540/Em590 red
In short: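 Tox21 10K library compounds were pinned into cell-free DMEM with 10% FBS and fluorescence was read at excitation 540 nm. Activity is expressed as Rose Bengal sodium equivalency.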

[3] = qHTS assay to test for compound auto fluorescence at 590 nm (red) in HepG2 cell free culture (AID 720684); settings: cell-free medium autofluorescence, red 540/590 nm
In short: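 Measured in medium alone (MEM containing 10% FBS) following pintool addition of compound; emission at 590 nm with 540 nm excitation, referenced to Rose Bengal sodium.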

[4] = qHTS assay to test for compound auto fluorescence at 460 nm (blue) in HepG2 cell free culture (AID 720685); settings: Cell-free culture medium, blue autofluorescence 405/460 nm
In short: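 Compound (23 nL) or DMSO pinned into cell-free MEM with 10% FBS; blue fluorescence read at 405/460 nm excitation/emission, expressed as auto-fluorescence equivalency to triamterene.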

[5] = qHTS assay to test for compound auto fluorescence at 535 nm (green) in HepG2 cell free culture (AID 720686); settings: Cell-free medium, green autofluorescence 485/535 nm
[6] = molecular target: Glucocorticoid receptor (Homo sapiens) (UniProt P04150); test: qHTS assay to identify small molecule agonists of the glucocorticoid receptor (GR) signaling pathway (AID 720691; active = well fitted activation curve with a large enough effect in the signal ratio in the repeat runs, not every such curve was filed as active; the % refers to the signal ratio); settings: GR-bla HeLa, beta-lactamase reporter ratio, 18 h
[7] = molecular target: Glucocorticoid receptor (Homo sapiens) (UniProt P04150); test: qHTS assay to identify small molecule antagonists of the glucocorticoid receptor (GR) signaling pathway (AID 720692; active = well fitted inhibition curve with a large enough effect in the signal ratio in the repeat runs, not every such curve was filed as active; the % refers to the signal ratio); settings: GR-bla HeLa, beta-lactamase FRET ratio, dexamethasone-stimulated, 18 h
[8] = qHTS assay to identify small molecule antagonists of the glucocorticoid receptor (GR) signaling pathway - cell viability counter screen (AID 720693); settings: GR-bla HeLa viability, CellTiter-Glo luminescence, 18 h, with 5 nM dexamethasone present; note: nearly all actives have a fitted effect of over 55% in size
[9] = qHTS assay for identifying genotoxic compounds that show differential cytotoxicity against isogenic chicken DT40 cell lines with known DNA damage response pathways - Rev3 mutant cell line (AID 743014); settings: chicken DT40 Rev3-/- viability, CellTiter-Glo, 40 h; series mostly up to 68.4 µM; note: nearly all actives have a fitted effect of over 55% in size; note: potency is the fitted concentration of half-maximal effect
[10] = qHTS assay for identifying genotoxic compounds that show differential cytotoxicity against isogenic chicken DT40 cell lines with known DNA damage response pathways - wild type cell line (AID 743012); settings: DT40 wild type chicken cells viability, CellTiter-Glo, 40 h; note: nearly all actives have a fitted effect of over 60% in size
In short: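 First, wild type DT40 cells were plated at 300 per well and equilibrated about 0.5 h at 37 C/5% CO2. Next, compounds in DMSO were added and exposure lasted 40 h. Finally, CellTiter-Glo was added for 30 min at room temperature and luminescence recorded.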
% is set by controls: 0 for no effect and ±100 for the full control effect.

COc1ccc([N+](=O)[O-])cc1[N+](=O)[O-]
active: Potency [9] 54.5 µM
inactive: activity change ([1]; at 91.3 µM (top of the series)) 0.0032% | fluorescence, % of fluorescent control ([2]; at 91.3 µM (top of the series)) 0.0033% | fluorescence, % of Rose Bengal ([3]; at 91.3 µM (top of the series)) 0.0164% | fluorescence, % of fluorescent control ([4]; at 91.3 µM (top of the series)) 0.0998% | fluorescence, % of fluorescein control ([5]; at 91.3 µM (top of the series)) 0.0078% | activation ([6]; at 62.4 µM (top of the series)) -8.47% | activity change, negative = inhibition ([7]; at 58.5 µM (top of the series)) -18.3% | viability change, negative = cytotoxic ([8]; at 58.5 µM (top of the series)) -0.33%

CC(C)OP(C)(=O)OC(C)C
inactive: activity change ([1]; at 91.3 µM (top of the series)) 0.0093% and -0.0208% | fluorescence, % of fluorescent control ([2]; at 91.3 µM (top of the series)) -0.147% and -0.0693% | fluorescence, % of Rose Bengal ([3]; at 91.3 µM (top of the series)) 0.341% and 0.157% | fluorescence, % of fluorescent control ([4]; at 91.3 µM (top of the series)) -0.0587% and -0.0378% | fluorescence, % of fluorescein control ([5]; at 91.3 µM (top of the series)) -0.107% and -0.0484% | activation ([6]; at 62.4 µM (top of the series)) -1.58% and -0.799% | activity change, negative = inhibition ([7]; at 58.5 µM (top of the series)) 3.23% and 4.17% | viability change, negative = cytotoxic ([8]; at 58.5 µM (top of the series)) 0.866% and 7.43% | activity change, negative = cytotoxicity ([10]; at 68.4 µM (top of the series)) -0.72% | Potency [9]

CCN(CC)CCCl
inactive: activity change ([1]; at 95.7 µM (top of the series)) -0.0977% | fluorescence, % of fluorescent control ([2]; at 95.7 µM (top of the series)) -0.294% | fluorescence, % of Rose Bengal ([3]; at 95.7 µM (top of the series)) -0.0167% | fluorescence, % of fluorescent control ([4]; at 95.7 µM (top of the series)) 0.0255% | fluorescence, % of fluorescein control ([5]; at 95.7 µM (top of the series)) -0.0195% | activation ([6]; at 79.2 µM (top of the series)) 0.972% | activity change, negative = inhibition ([7]; at 78.9 µM (top of the series)) 17.8% | viability change, negative = cytotoxic ([8]; at 78.9 µM (top of the series)) -3.22%
active: Potency [9] 8.76 µM

CP(=O)(O)OCCC[Si](O)(O)O
inactive: activity change ([1]; at 91.3 µM (top of the series)) 0.0223% | fluorescence, % of fluorescent control ([2]; at 91.3 µM (top of the series)) 0.341% | fluorescence, % of Rose Bengal ([3]; at 91.3 µM (top of the series)) 0.121% | fluorescence, % of fluorescent control ([4]; at 91.3 µM (top of the series)) 0.0396% | fluorescence, % of fluorescein control ([5]; at 91.3 µM (top of the series)) -0.0128% | activation ([6]; at 62.4 µM (top of the series)) -2.87% | activity change, negative = inhibition ([7]; at 58.5 µM (top of the series)) -1.3% | viability change, negative = cytotoxic ([8]; at 58.5 µM (top of the series)) -4.37% | activity change, negative = cytotoxicity ([10]; at 68.4 µM (top of the series)) 25.5% | Potency [9]

Cc1ccc([N+](=O)[O-])cc1[N+](=O)[O-]
inactive: activity change ([1]; at 91.3 µM (top of the series)) -0.0205% and 0.131% | fluorescence, % of fluorescent control ([2]; at 91.3 µM (top of the series)) -0.33% and 0.173% | fluorescence, % of Rose Bengal ([3]; at 91.3 µM (top of the series)) 0.0401% and 0.0481% | fluorescence, % of fluorescent control ([4]; at 91.3 µM (top of the series)) -0.164% and 0.0227% | fluorescence, % of fluorescein control ([5]; at 91.3 µM (top of the series)) -0.0665% and 0.0137% | viability change, negative = cytotoxic ([8]; at 58.5 µM (top of the series)) -10.3% and 8.07% | activity change, negative = cytotoxicity ([10]; at 68.4 µM (top of the series)) -15.4% and 5.34% | Potency [9]

CC(C)N(CCCl)C(C)C
inactive: activity change ([1]; at 46 µM (top of the series)) -0.0165% | fluorescence, % of fluorescent control ([2]; at 46 µM (top of the series)) 0.228% | fluorescence, % of Rose Bengal ([3]; at 46 µM (top of the series)) 0.0413% | fluorescence, % of fluorescent control ([4]; at 46 µM (top of the series)) -0.137% | fluorescence, % of fluorescein control ([5]; at 46 µM (top of the series)) 0.0261% | activation ([6]; at 62.4 µM (top of the series)) -1.48% | viability change, negative = cytotoxic ([8]; at 58.5 µM (top of the series)) 7.34% | activity change, negative = cytotoxicity ([10]; at 68.4 µM (top of the series)) 1% | Potency [9]

O=[N+]([O-])[O-].[NH4+]
inactive: activity change ([1]; at 46 µM (top of the series)) -0.0787% | activity change ([1]; at 91.3 µM (top of the series)) 0.0169% and 0.0092% | fluorescence, % of fluorescent control ([2]; at 46 µM (top of the series)) 0.08% | fluorescence, % of fluorescent control ([2]; at 91.3 µM (top of the series)) -0.0171% and 0.0915% | fluorescence, % of Rose Bengal ([3]; at 46 µM (top of the series)) 0.498% | fluorescence, % of Rose Bengal ([3]; at 91.3 µM (top of the series)) -0.0424% and 0.153% | fluorescence, % of fluorescent control ([4]; at 46 µM (top of the series)) 0.0549% | fluorescence, % of fluorescent control ([4]; at 91.3 µM (top of the series)) 0.0737% and 0.0417% | fluorescence, % of fluorescein control ([5]; at 46 µM (top of the series)) -0.0153% | fluorescence, % of fluorescein control ([5]; at 91.3 µM (top of the series)) 0.0211% and 0.0128% | activation ([6]; at 62.4 µM (top of the series)) -2.32% and 0.435% and -1.04% | activity change, negative = inhibition ([7]; at 58.5 µM (top of the series)) -6.69% and 1.1% and 2.23% | viability change, negative = cytotoxic ([8]; at 58.5 µM (top of the series)) -3.19% and -0.49% and 6.63% | activity change, negative = cytotoxicity ([10]; at 68.4 µM (top of the series)) -0.715% and -23.5% and 10.5% | Potency [9]

C/C1=C2N=C(/C=C3N=C(/C(C)=C4\[N-][C@@](C)([C@@H]5N=C1[C@](C)(CCC(=O)NC[C@@H](C)OP(=O)([O-])O[C@H]1[C@@H](O)[C@@H](n6cnc7cc(C)c(C)cc76)O[C@@H]1CO)[C@H]5CC(N)=O)[C@@](C)(CC(N)=O)[C@@H]4CCC(N)=O)[C@@](C)(CC(N)=O)[C@@H]\3CCC(N)=O)C(C)(C)[C@@H]/2CCC(N)=O.[C-]#N.[Co+3]
inactive: activity change ([1]; at 18.6 µM (top of the series)) -0.0523% | fluorescence, % of fluorescent control ([2]; at 18.6 µM (top of the series)) -0.318% | fluorescence, % of Rose Bengal ([3]; at 18.6 µM (top of the series)) -0.255% | fluorescence, % of fluorescent control ([4]; at 18.6 µM (top of the series)) -0.045% | fluorescence, % of fluorescein control ([5]; at 18.6 µM (top of the series)) 0.0019% | activation ([6]; at 29.2 µM (top of the series)) -0.781% | activity change, negative = inhibition ([7]; at 27 µM (top of the series)) -4.39% | viability change, negative = cytotoxic ([8]; at 27 µM (top of the series)) 1.65% | activity change, negative = cytotoxicity ([10]; at 31.4 µM (top of the series)) 9.42% | Potency [9]

Nc1cc([N+](=O)[O-])cc([N+](=O)[O-])c1O
inactive: activity change ([1]; at 95.7 µM (top of the series)) -0.272% | fluorescence, % of fluorescent control ([2]; at 95.7 µM (top of the series)) -0.335% | fluorescence, % of Rose Bengal ([3]; at 95.7 µM (top of the series)) -0.0345% | fluorescence, % of fluorescent control ([4]; at 95.7 µM (top of the series)) -0.932% | fluorescence, % of fluorescein control ([5]; at 95.7 µM (top of the series)) -0.321% | viability change, negative = cytotoxic ([8]; at 78.9 µM (top of the series)) -11.2% | Potency [9]

COP(C)(=O)OC
inactive: activity change ([1]; at 91.3 µM (top of the series)) -0.0041% | activity change ([1]; at 95.7 µM (top of the series)) 0.0851% | fluorescence, % of fluorescent control ([2]; at 91.3 µM (top of the series)) 0.166% | fluorescence, % of fluorescent control ([2]; at 95.7 µM (top of the series)) -0.0734% | fluorescence, % of Rose Bengal ([3]; at 91.3 µM (top of the series)) 0.0911% | fluorescence, % of Rose Bengal ([3]; at 95.7 µM (top of the series)) 0.0396% | fluorescence, % of fluorescent control ([4]; at 91.3 µM (top of the series)) 0.126% | fluorescence, % of fluorescent control ([4]; at 95.7 µM (top of the series)) -0.0471% | fluorescence, % of fluorescein control ([5]; at 91.3 µM (top of the series)) -0.0669% | fluorescence, % of fluorescein control ([5]; at 95.7 µM (top of the series)) 0.0137% | activation ([6]; at 62.4 µM (top of the series)) 5.82% | activation ([6]; at 79.2 µM (top of the series)) -0.427% | activity change, negative = inhibition ([7]; at 58.5 µM (top of the series)) 22.4% | viability change, negative = cytotoxic ([8]; at 58.5 µM (top of the series)) 19.9% | viability change, negative = cytotoxic ([8]; at 78.9 µM (top of the series)) -0.201% | activity change, negative = cytotoxicity ([10]; at 68.4 µM (top of the series)) 12.6% | activity change, negative = cytotoxicity ([10]; at 95 µM (top of the series)) -18.5% | Potency [9]
